Test system: HT-29
Experiment: Protection against TSZ-induced necroptosis in human HT-29 cells assessed as cell viability incubated for 24 hrs by CellTiter Glo assay
Type: functional, cell-based
Details: dose 0.1-10 µM

COc1ccc(C(=O)N2CCC3(CCN(C(=O)CCCCCCCOc4cccc(Nc5[nH]nc(-c6ccc(NS(=O)(=O)C(F)F)cc6)c5C(N)=O)c4)CC3)CC2)cc1N1CCC(=O)NC1=O
Activity: Dose-Dependent Effect

From ChEMBL document CHEMBL5325492, “PROTACs Targeting MLKL Protect Cells from Necroptosis” (J Med Chem, 2023)
